The chains behind the UniProt entries cited, without tags or fusion partners. Residues count along the entry.
UniProt P02769, 25-607 limits assumed: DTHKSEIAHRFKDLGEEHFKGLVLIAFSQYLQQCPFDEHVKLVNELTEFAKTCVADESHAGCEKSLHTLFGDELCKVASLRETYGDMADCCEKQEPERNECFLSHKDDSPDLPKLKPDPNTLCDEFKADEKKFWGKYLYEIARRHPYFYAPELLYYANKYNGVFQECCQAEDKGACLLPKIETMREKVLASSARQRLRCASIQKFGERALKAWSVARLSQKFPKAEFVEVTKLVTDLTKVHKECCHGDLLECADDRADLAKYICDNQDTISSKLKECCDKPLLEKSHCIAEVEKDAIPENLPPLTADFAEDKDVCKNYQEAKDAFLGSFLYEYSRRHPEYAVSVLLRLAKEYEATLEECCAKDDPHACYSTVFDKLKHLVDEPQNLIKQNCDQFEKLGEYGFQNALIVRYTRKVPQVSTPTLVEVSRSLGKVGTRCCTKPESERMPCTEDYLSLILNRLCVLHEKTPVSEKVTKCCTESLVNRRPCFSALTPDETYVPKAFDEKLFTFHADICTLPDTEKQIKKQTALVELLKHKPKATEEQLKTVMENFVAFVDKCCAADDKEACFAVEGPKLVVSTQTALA

In patent publication US9629920B2:

Target: Bovine Serum Albumin (BSA) (Bos taurus, UniProt P02769)
Assay: Fentanyl binding to BSA by two-compartment equilibrium dialysis

For CCC(=O)N(c1ccccc1)C1CCN(CCc2ccccc2)CC1, the “Binding Preference A/B” value (Control (no BSA)) was 0.95, the “Fentanyl concentration, compartment A” value (Control (no BSA)) was 391 µM and the “Fentanyl concentration, compartment B” value (Control (no BSA)) was 410 µM. The “Fentanyl concentration, compartment A” value (compartment A with 95 mg/ml BSA, 0.78 mM fentanyl start, 25 mM phosphate buffer pH 7, four-day equilibrium, room temperature) was 639 µM and 552 µM and 544 µM, the “Fentanyl concentration, compartment B” value (compartment B, buffer only (0 mg/ml BSA), opposite compartment has 95 mg/ml BSA, four-day equilibrium) was 145 µM and 225 µM and 136 µM and the “Binding Preference A/B” value (ratio of fentanyl in compartment A (95 mg/ml BSA) to compartment B) was 4.4 and 2.45 and 4.0. The “Binding of fentanyl to BSA protein (in words)” value (three separate determinations) was “shown to bind to BSA protein”.

Several values for one entry are separate records, joined by “and”; a condition that tells them apart may be missing. Equal values may be shown once. Some compounds may have been tested in ways that are not shown here.
